## Antibody variant affinities, Ab-14 light chain, assay B

Values reported by Li et al. 2023, doi:10.1038/s41467-023-39022-2 (FLAb copy).

Target peptide (SARS-CoV-2 spike, HR2 region): PDVDLGDISGINAS

Each scFv is VH, a 15-residue (Gly4Ser)3 linker, VL, as in the parent Ab-14, and differs from it in the CDRs of the light chain only.
VH: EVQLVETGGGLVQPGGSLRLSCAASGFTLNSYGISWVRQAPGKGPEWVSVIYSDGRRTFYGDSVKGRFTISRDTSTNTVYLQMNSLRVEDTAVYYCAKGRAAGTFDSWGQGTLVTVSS
VL: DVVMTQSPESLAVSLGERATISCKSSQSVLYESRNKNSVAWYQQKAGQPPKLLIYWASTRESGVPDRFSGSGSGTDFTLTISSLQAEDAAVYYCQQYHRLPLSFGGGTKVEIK

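Phage display of a naive human antibody library on the peptide gave the parent. Designed CDR sequences, proposed from the first random library and measured here. Several design methods are mixed in this list. AlphaSeq pools MATa yeast showing the antibodies with MATalpha yeast showing the peptide. Mating (16 h, 30 °C) was followed by selection of diploids and sequencing of their barcodes. Each replicate has its own calibration line, from reference interactions of the BCL2 family. There are six technical replicates.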

Positions count from residue 1 of the parent VL; S25E puts E in place of S.
Variants here have at most six changes.
Each Kd is an estimate from the mating assay, the geometric mean of the replicates in which the pair was seen; lower is stronger.
A pair that was not seen in any replicate is written "no signal"; this usually means weak binding, but a binder can also be missed.
The list is sorted by this average, lowest first, undetected variants last.
In the paper, a design with two or fewer of six values counts as a poor binder.
A sequence measured in both rounds can read differently, since the two assays cover different ranges.
Of ten entries with the parent sequence, four were seen in most replicates (averages 2.2 nM to 240 nM), three in one and three in none, so single entries are noisy.
Nonspecific signal, from three strains lacking the peptide, appeared in 4% of pairings of all light chain designs, centred on 430 nM (5% of these signals below 38 nM); values are not corrected for it.

changes,Kd,replicates with signal
S25E+S26F+Y31F+W56D,280 pM,6/6
S25L+Q27G+W56N+E61M,460 pM,6/6
S25L+L30W+E32L+S33E+W56N,510 pM,6/6
S25L+S26P+W56N+T59Q+E61M,670 pM,6/6
S25L+W56N+T59Q+E61F,730 pM,6/6
S26D+V29A+W56G,820 pM,6/6
S25V+Q27M+V29Y+W56N,830 pM,6/6
S25L+V29M+W56N+S62M,840 pM,6/6
S25F+N35T+W56N+S58V+S62A,880 pM,6/6
S25V+S26P+V29H+W56D,960 pM,6/6
S25V+S26Y+W56E,1.0 nM,6/6
S25W+Y31G+S33E+N37M+W56N+T59Q,1.0 nM,6/6
Q27I+V29Y+R34L+W56N,1.1 nM,6/6
K24H+S25L+Q27D+W56N+S103H,1.2 nM,6/6
S25F+S26M+V29M+L30G+W56D+E61S,1.2 nM,6/6
S25L+S26E+V29I+L30Y+W56N,1.3 nM,6/6
S25L+S26D+V29Q+W56N+E61C,1.3 nM,6/6
L30I+R34S+W56D,1.6 nM,6/6
V29W+L30D+W56H+S62Q,1.7 nM,6/6
S26G+S28G+W56G+T59Q+E61C,1.9 nM,6/6
S25L+S26M+V29M+L30E+W56N,1.9 nM,6/6
S25L+W56E+E61C,2.0 nM,6/6
S25L+N35V+W56D+T59Q,2.2 nM,6/6
S25L+S28G+V29Q+S38Q+W56S+S62M,2.4 nM,6/6
Q27E+V29F+W56E,2.5 nM,6/6
V29I+N35F+W56G+H98V,2.9 nM,6/6
S25F+S26V+V29W+W56G+S103I,3.7 nM,6/6
Q27L+R34Q+K36H+W56N+R99V,4.2 nM,6/6
S25F+S28K+S33H+N35Q+W56N,4.6 nM,6/6
S25V+Q27I+V29Y+Y31L+W56S,8.6 nM,6/6
S25M+S33G+H98V,13 nM,6/6
S25Y+H98P,15 nM,6/6
K24F+Q27I+V29Y+R34P+W56E,16 nM,6/6
R34Q+K36E,30 nM,6/6
L30T+Y31F,37 nM,4/6
S28P+L30W+W56S+R60T+E61V,63 nM,6/6
Y31K+S33D+R34E+K36V+E61P,91 nM,6/6
V29S+R60L,98 nM,4/6
S25I+Q27E+R99D,170 nM,5/6
K24W+S25T+E32Q+N37G+W56Q+R99N,190 nM,5/6
E32D+H98N,190 nM,6/6
V29K+E32V+W56N+Q95C,560 nM,4/6
V29D+R60H+R99S+L100E,no signal,0/6
L30P+Y97H,no signal,0/6
S33W+W56S+P101H,no signal,0/6
S25N+S28P+Y31W+R34S+N35C+K36S,no signal,0/6
S26E+V29L+L102A,no signal,0/6
V39L+Q95D+R99Q,no signal,0/6
Q27I+V29L+W56A,no signal,0/6
N35L+W56S+A57C+S62H,no signal,0/6

Extract of 4 entries:

changes,Kd,replicates with signal
L30P+Y97H,no signal,0/6
R34Q+K36E,30 nM,6/6
S25L+S26E+V29I+L30Y+W56N,1.3 nM,6/6
S25L+W56E+E61C,2.0 nM,6/6